From patent US9731027B2, “Somatostatin-dopamine chimeric analogs” (Ipsen Pharma S.A.S., priority 2012, dated 2017)

Amino acid sequences for entries named in this document (tags omitted). A change or cut given only in a name is not applied to a line headed by its entry.
UniProt P30874: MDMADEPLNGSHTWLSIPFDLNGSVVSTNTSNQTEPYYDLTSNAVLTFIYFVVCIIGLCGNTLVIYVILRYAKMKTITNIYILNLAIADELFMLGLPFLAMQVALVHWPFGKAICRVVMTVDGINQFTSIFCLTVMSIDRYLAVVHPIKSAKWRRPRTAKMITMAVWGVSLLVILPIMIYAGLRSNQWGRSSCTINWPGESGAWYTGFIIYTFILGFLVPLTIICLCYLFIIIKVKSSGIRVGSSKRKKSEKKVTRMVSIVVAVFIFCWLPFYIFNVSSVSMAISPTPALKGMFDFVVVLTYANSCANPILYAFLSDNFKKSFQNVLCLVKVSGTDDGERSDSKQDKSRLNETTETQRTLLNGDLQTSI
UniProt P35346: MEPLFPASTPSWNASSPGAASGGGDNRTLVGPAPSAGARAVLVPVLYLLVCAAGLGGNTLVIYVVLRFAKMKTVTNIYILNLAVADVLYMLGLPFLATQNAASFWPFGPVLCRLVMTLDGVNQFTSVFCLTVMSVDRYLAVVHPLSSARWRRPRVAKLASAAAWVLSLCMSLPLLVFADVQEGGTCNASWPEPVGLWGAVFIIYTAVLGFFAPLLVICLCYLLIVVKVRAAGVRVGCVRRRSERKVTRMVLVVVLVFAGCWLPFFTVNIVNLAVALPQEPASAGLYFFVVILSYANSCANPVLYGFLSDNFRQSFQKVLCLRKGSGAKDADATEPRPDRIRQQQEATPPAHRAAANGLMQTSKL

Experiments:
hSSTR2 = molecular target: T1, hSSTR2 (Homo sapiens, UniProt P30874); experiment: Somatostatin receptor radioligand binding assay, hSSTR2
T1 construct: host or cells: 'Cells expressing hSSTR2'

hSSTR5 = molecular target: T2, hSSTR5 (Homo sapiens, UniProt P35346); experiment: Somatostatin receptor radioligand binding assay, hSSTR5; conditions: CHO-K1 membranes, [125-Tyr]-[DPhe-cyclo(Cys-Tyr-DTrp-Lys-Val-Cys)-Thr-NH2]; read-out: hSSTR5 Ki (nM) ± SEM
T2 construct: expressed in transfected cells; host or cells: CHO-K1 (ATCC), pcDNA3.1, G418-selected clonal line; membranes

Work on C[C@@H](O)[C@@H]1NC(=O)[C@H](CCCCN)NC(=O)[C@@H](Cc2c[nH]c3ccccc23)NC(=O)[C@H](Cc2ccccc2)NC(=O)[C@H](Cc2ccccc2)NC(=O)[C@H](CCCNC(=N)N)NC(=O)[C@H](NC(=O)CSC[C@@H]2C[C@@H]3c4cccc5[nH]cc(c45)C[C@H]3N(C)C2)CCCCNC(=O)[C@H](Cc2ccccc2)NC1=O [Compound 44, Dop1-cyclo(DLys-Arg-Phe-Phe-DTrp-Lys-Thr-Phe)] yielded a Ki (hSSTR2) of 1.37 ± 0.23 nM and a Ki (hSSTR5) of 1.38 ± 0.3 nM.
